Reference: PubChem BioAssay AID2129 (The Scripps Research Institute Molecular Screening Center, 2009)
The entries are a selection whose mix differs from that of the whole data set. Some of these compounds have results that are not shown, active ones among them. Calls of active or inactive are those of the source.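 The calls were made as follows: active = inhibition above the mean of all tested compounds plus 3 SD, cutoff set per campaign (cut at about 30% in these data); inactive = the rest.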

Protein sequences, listed by entry. Tags and fused reporters are not part of them.
UniProt Q07817, whole entry: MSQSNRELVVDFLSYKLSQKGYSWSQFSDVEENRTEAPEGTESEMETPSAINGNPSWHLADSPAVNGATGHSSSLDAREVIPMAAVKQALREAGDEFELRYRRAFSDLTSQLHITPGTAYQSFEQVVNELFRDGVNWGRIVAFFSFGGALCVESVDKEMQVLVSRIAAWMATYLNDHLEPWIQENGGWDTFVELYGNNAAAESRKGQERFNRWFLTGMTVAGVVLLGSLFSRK

Each compound was assayed against Bcl-2-like protein 1 (Homo sapiens) (UniProt Q07817) (assay: Bcl-xL/Bim BH3 interaction blockers – biochemical, fluorescence polarization, HTS, primary screen (AID 2129;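 also: 0% = DMSO wells and 100% = unlabeled Bim-BH3 peptide competitor; inhibitors lower millipolarization by displacing the labeled peptide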)). Conditions: GST-Bcl-xL / FITC-Bim BH3 peptide fluorescence polarization; at 10.9 µM; active compounds read high.
In the case of `CN(C)C1(CNC(=O)c2ccc(Br)cc2)CCCCC1`, the inhibition is reported as inactive: -1.13%.
For `COc1cc(C(=O)NCC2(N(C)C)CCCCC2)c([N+](=O)[O-])cc1OC`, the inhibition was inactive: -0.6%.
For `COc1cccc(C(=O)NCC2(N3CCCCC3)CCCCC2)c1`, the inhibition was inactive: 5.2%.
For `COc1ccc(Cl)cc1C(=O)NCC1(N(C)C)CCCCC1`, the inhibition was inactive: 11.6%.
In the case of `O=C(NCC1(N2CCCCC2)CCCCC1)c1cccc(Cl)c1`, the inhibition is reported as inactive: -1.74%.
With `O=C(OC1CN2CCC1CC2)C(CO)(c1ccccc1)c1ccccc1` (centres undefined) the inhibition was inactive: 6.79%.
For `COc1ccc(Br)c(C(=O)NCC2(N3CCCCC3)CCCCC2)c1`, the inhibition was inactive: 3.61%.
With `CC(C)Oc1ccc(C(=O)NCC2(N(C)C)CCCCC2)cc1` the inhibition was inactive: 2.53%.
`CN(C)c1cccc(C(=O)NCC2(N(C)C)CCCCC2)c1` was tested, and the inhibition was inactive: 1.08%.
`O=C(NCC1(N2CCCCC2)CCCCC1)c1cc([N+](=O)[O-])ccc1Cl` was tested, and the inhibition was inactive: -10.1%.
With `CN1[C@@H]2CC[C@H]1CC(OC(=O)C(O)(c1ccccc1)c1ccccc1)C2` (some centres undefined) the inhibition was inactive: 3.63%.
In the case of `CCN(CC)CC(C)C(C)OC(=O)C(O)(c1ccccc1)c1ccccc1` (centres undefined), the inhibition is reported as inactive: -5.76%.
With `COc1cc(SC)ccc1C(=O)NCC1(N(C)C)CCCCC1` the inhibition was inactive: 6.97%.
With `CC(C)N1C(=O)CC2(CCN(CCOC(=O)C(O)(c3ccccc3)c3ccccc3)CC2)C1=O` the inhibition was inactive: 4.12%.
`Cc1ccc(C(=O)NCC2(N3CCCCC3)CCCCC2)cc1` was tested, and the inhibition was inactive: 6.27%.
`Cc1ccccc1C(=O)NCC1(N2CCCCC2)CCCCC1` was tested, and the inhibition was inactive: -1.5%.
For `CN(C)c1ccc(C(=O)NCC2(N(C)C)CCCCC2)cc1`, the inhibition was inactive: 3.48%.
In the case of `CN(C)C1CCCC1OC(=O)C(O)(c1ccccc1)c1ccccc1` (centres undefined), the inhibition is reported as inactive: 3.69%.
`C=CCN1CCN(CCOC(=O)C(O)(c2ccccc2)c2ccccc2)CC1` was tested, and the inhibition was inactive: 2.63%.
For `O=C(NCC1(N2CCCCC2)CCCCC1)c1cc(F)c(F)cc1Cl`, the inhibition was inactive: 3.19%.
With `COc1ccc(C(=O)NCC2(N(C)C)CCCCC2)cc1` the inhibition was inactive: 1.62%.
In the case of `CCN1CCCC(OC(=O)C2(O)c3ccccc3C=Cc3ccccc32)C1` (centres undefined), the inhibition is reported as inactive: 8.44%.
In the case of `Cc1cc(C(=O)NCC2(N3CCCCC3)CCCCC2)ccc1[N+](=O)[O-]`, the inhibition is reported as inactive: 5.4%.
For `O=C(NCC1(N2CCCCC2)CCCCC1)c1cccc(Br)c1`, the inhibition was inactive: 0.15%.
